Data taken from ChEMBL document CHEMBL5512692, “Colloidal Aggregation Confounds Cell-Based Covid-19 Antiviral Screens” (J Med Chem, 2024).

Assay: Inhibition of porcine heart MDH using oxaloacetic acid as substrate preincubated for 5 mins followed by substrate and […] addition and measured for 80 sec by absorbance based analysis
Parameters: species or system Sus scrofa

Structure (SMILES): O=C(O[C@@H]1Cc2c(O)cc(O)cc2O[C@@H]1c1cc(O)c(O)c(O)c1)c1cc(O)c(O)c(O)c1 [EPIGALOCATECHIN GALLATE]
- IC50: 5.15 µM
